Experimental findings from ChEMBL document CHEMBL1641579, “Synthesis and biological evaluation of 7-substituted-1-(3-bromophenylamino)isoquinoline-4-carbonitriles as inhibitors of myosin light chain kinase and epidermal growth factor receptor” (Bioorg Med Chem, 2011) are described below.

By UniProt entry, the sequences of proteins in these tests, tags left out.
UniProt Q15746, whole entry: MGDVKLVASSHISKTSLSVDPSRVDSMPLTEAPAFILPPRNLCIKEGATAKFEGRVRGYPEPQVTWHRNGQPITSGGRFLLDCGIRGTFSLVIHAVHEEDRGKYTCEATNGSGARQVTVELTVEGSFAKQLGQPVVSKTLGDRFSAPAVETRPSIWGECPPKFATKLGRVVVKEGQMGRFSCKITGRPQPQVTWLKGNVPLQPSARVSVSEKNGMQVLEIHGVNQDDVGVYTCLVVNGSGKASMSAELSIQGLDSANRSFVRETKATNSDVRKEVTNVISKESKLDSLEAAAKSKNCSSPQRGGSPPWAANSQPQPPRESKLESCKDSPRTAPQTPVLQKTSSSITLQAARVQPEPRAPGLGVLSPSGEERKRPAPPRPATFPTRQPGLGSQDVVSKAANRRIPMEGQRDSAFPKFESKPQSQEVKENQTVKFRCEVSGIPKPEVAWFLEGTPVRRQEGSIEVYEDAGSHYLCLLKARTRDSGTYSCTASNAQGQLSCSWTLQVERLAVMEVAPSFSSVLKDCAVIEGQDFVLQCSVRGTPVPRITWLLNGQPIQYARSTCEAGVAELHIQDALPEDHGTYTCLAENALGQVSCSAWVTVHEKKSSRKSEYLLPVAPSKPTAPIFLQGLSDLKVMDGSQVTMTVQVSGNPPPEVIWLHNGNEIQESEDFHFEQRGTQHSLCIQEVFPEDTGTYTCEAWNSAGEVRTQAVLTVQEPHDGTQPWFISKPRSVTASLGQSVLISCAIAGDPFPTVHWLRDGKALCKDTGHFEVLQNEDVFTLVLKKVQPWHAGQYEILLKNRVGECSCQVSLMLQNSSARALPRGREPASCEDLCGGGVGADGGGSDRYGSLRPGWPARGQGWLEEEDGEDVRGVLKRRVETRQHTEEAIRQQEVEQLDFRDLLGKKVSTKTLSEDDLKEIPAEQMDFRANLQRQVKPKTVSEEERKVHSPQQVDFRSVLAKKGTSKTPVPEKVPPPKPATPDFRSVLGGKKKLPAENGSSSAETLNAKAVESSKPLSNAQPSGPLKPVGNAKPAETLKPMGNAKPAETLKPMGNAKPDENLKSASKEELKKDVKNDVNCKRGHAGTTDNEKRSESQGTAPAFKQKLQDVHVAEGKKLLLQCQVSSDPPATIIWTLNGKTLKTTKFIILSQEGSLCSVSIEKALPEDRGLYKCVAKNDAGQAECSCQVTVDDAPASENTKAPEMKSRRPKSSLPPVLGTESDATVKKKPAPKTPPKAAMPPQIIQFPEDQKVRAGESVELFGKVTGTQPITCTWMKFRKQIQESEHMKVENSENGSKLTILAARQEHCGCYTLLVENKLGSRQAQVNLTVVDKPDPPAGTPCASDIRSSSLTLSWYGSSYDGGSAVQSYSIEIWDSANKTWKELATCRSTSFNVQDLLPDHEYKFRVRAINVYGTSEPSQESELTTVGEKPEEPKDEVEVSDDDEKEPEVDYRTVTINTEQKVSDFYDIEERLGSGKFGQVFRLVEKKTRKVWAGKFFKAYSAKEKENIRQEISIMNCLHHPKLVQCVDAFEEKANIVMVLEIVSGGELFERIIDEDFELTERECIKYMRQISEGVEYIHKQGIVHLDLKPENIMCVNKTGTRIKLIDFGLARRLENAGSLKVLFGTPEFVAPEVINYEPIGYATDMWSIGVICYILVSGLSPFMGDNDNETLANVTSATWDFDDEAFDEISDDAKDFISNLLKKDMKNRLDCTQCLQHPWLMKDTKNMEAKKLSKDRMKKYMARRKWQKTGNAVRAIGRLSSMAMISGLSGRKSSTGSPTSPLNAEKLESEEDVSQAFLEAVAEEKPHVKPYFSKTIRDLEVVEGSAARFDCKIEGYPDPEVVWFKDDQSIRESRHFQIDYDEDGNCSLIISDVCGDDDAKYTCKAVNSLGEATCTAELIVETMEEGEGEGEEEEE

SMILES strings stand for the structures.

The target in the experiment is Myosin light chain kinase, smooth muscle (Homo sapiens, UniProt Q15746). As to the kind of experiment: Inhibition of MLCK by HTRF assay. The method, boiled down: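 HTRF activity assay with peptide substrate STK1 at 375 nM and ATP at its Km (18 µM), in the presence of Ca2+/calmodulin. Kinase and inhibitor preincubated 30 min, then ATP plus substrate added. Detection by Eu-cryptate anti-phospho-STK1 antibody and streptavidin-XL665, with the 665/620 nm FRET ratio read. Eight inhibitor concentrations, Hill 4-parameter fit. At least two independent runs, each in duplicate. NI means no inhibition up to 40 µM.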

`COC(=O)[C@@]1(O)C[C@H]2O[C@]1(C)n1c3ccccc3c3c4c(c5c6ccccc6n2c5c31)C(=O)NC4` [K-252A] yielded a Ki of 20 nM.
